Values quoted from earlier work, collected in US20070021391A1, “Preventive/remedy for urinary disturbance” (priority 2003, published 2007).

The chains behind the UniProt entries cited, without tags or fusion partners. Residues count along the entry.
UniProt P81908, whole entry: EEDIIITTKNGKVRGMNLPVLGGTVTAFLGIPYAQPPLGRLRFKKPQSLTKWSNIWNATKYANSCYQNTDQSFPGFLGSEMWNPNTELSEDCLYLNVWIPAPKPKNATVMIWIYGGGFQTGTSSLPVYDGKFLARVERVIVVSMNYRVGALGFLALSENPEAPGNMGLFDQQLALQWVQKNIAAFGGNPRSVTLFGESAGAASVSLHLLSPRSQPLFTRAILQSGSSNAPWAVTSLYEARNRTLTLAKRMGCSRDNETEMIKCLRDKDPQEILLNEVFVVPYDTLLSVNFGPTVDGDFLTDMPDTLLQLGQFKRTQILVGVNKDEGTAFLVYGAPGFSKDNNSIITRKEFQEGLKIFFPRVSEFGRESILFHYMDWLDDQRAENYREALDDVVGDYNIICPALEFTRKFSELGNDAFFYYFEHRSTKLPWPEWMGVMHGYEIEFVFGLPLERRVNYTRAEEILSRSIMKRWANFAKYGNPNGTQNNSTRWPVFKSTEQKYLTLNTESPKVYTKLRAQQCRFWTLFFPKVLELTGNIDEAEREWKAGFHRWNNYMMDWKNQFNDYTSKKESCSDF
UniProt O42275, 24-633: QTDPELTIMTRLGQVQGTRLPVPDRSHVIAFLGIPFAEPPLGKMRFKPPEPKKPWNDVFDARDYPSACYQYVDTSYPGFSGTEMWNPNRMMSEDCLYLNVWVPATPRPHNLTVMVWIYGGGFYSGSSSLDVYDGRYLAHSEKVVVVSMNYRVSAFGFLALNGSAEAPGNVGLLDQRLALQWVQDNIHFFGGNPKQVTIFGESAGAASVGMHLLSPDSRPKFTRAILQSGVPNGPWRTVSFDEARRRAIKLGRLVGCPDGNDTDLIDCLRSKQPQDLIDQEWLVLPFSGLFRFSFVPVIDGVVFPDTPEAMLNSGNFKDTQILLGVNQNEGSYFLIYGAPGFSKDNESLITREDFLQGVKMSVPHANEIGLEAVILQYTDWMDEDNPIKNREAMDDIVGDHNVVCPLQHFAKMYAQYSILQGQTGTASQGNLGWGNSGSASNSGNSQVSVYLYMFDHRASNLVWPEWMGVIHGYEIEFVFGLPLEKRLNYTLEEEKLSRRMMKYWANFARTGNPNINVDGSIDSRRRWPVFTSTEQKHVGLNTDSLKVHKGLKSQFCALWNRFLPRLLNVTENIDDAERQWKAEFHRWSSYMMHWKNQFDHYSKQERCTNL

Columns and labels:
Butyrylcholine esterase = Butyrylcholine esterase (Equus caballus, UniProt P81908); conditions: read-out: Butyrylcholine esterase inhibitory activity (IC50); cited from earlier work
Acetylcholine esterase = Acetylcholine esterase (Electrophorus electricus, UniProt O42275); conditions: Electric eel; Literature 5 (tacrine line prints 6); read-out: Acetylcholine esterase inhibitory activity (IC50); cited from earlier work

Q: Which results are given for `CNC(=O)Oc1ccc2c(c1)[C@]1(C)CCN(C)[C@@H]1N2C` [Physostigmine]?
A: IC50 (Butyrylcholine esterase): 0.03 µM; IC50 (Acetylcholine esterase): 10 µM
